Experimental data from patent US9828641B2, “Systemic genotoxicity as blood marker for allergic inflammation” (The Regents of the University of California, priority 2013, dated 2017).

Experiments:
[1] = Experimental: Acute colitis was defined as a 7 day treatment, and chronic colitis as any further treatment including remission periods. Control animals received sterile acidified water only. Symptoms (weight loss, stool consistency, gross bleeding) were recorded daily for calculation of disease activity index (23).
The disease activity index (DAI) is the average combined score of weight loss (0-4), stool consistency (0-4), and bleeding (0-4), used to score clinical symptoms (23).

[2] = tested on: peripheral leukocytes; details: wildtype mice, DSS 7 days, 3% w/v; p<0.01

For dextran sulfate sodium [DSS], the “Onset of rectal bleeding” value ([1]; 3% DSS, cycle 1) was 4 days, the Mortality ([1]; wildtype mice, after three cycles of 3% DSS) was “no mortalities were observed” and the “8-oxoguanine in peripheral leukocytes” value [2] was “significant increase”. The “Nitrotyrosine in peripheral leukocytes” value [2] was “significant increase”.
